scFv variants of Ab-14 (heavy chain) against a SARS-CoV-2 spike peptide

From the AlphaSeq antibody data of Engelhart et al. 2022 (doi:10.1038/s41597-022-01779-4), copy in the FLAb collection.

The target is the same throughout: PDVDLGDISGINAS, from the HR2 region of SARS-CoV-2 spike.

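Phage display of a naive human antibody library on the peptide gave the parent. In library AAYL49, one, two or three CDR residues were substituted; doubles and triples were drawn at random. AlphaSeq pools MATa yeast showing the antibodies with MATalpha yeast showing the peptide. Pairs that bind mate more often; barcode pairs of the diploids are counted by sequencing. A regression on co-assayed BCL2-family reference pairs converts the normalised counts of each replicate to an apparent Kd. Mating was done three times.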

The variants keep the light chain, the linker and the frameworks of Ab-14 (scFv order VH, the linker GGGGSGGGGSGGGGS, VL).
VH: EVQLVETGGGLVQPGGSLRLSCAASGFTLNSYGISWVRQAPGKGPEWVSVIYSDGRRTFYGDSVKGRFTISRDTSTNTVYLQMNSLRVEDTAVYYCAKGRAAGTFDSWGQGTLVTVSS
VL: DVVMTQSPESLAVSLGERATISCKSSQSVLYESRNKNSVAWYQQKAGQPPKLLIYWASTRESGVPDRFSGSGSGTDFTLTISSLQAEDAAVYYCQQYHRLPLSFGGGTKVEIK

The parent's heavy chain CDRs are GFTLNSYGIS, VIYSDGRRTFYGDSVK, GRAAGTFDS; each variant's own CDRs replace them letter for letter.
Affinities are written as log10 Kd with Kd in nM; a lower number is a better binder.
The mean shown is taken over the replicates in which the pair was detected.
An entry "n.d." has no value in the source: the pair was not observed among the diploids in that replicate. This suggests poor binding but is not conclusive.
In this assay the parent's reference entry averaged 0.65; its copy inside this library read 4.11 (one replicate of three).

| CDR-H1 | CDR-H2 | CDR-H3 | replicates, log10 nM | log10 Kd (nM), mean | control signals |
|---|---|---|---|---|---|
| GFTLNSLGIS | VIYLDGRRTFYGDSVK | GRVAGTFDS | n.d. / 3.54 / 4.00 | 3.77 | 1/9 (3.85) |
| GFTLNSYGIS | VIYSMGRRTSKGDSVK | GRAAGTFDS | n.d. / 4.42 / n.d. | 4.42 | 3/9 (4.57) |
| GFTLNLYGIS | TIYSDGRRTFYGDSVK | GRAAGTFIS | n.d. / 2.85 / n.d. | 2.85 | 2/9 (3.85) |
| GDTLNSYGIS | VIYSDGRRDFYGDSVK | GRAAGNFDS | n.d. / n.d. / n.d. | n.d. | 1/9 (3.80) |
| MITLNSYVIS | VIYSDGRRTFYGDSVK | GRAAGTFDS | n.d. / n.d. / 3.57 | 3.57 | 1/9 (3.78) |
| GFELNSYGIS | VIYSDGGRTFYGDSVK | GRCAGTFDS | 2.32 / 2.49 / 2.50 | 2.44 | 4/9 (3.56) |
| GFTFNSYGIS | VIYSDGRRTCYGDSVK | GRAAGTFSS | n.d. / 2.46 / n.d. | 2.46 | 3/9 (4.73) |
| GFTLNSYGVS | VIYSMGRRTFYGDSVK | GRAAGTFDS | n.d. / 1.75 / n.d. | 1.75 | 0/9 |
| GFTLNSYGIS | VIRFDGRRTFYGDSVK | SRAAGTFDS | n.d. / 2.71 / n.d. | 2.71 | 1/9 (4.55) |
| GFTLNSYGIS | EIYSDGRRTQYGISVK | GRAAGTFDS | n.d. / n.d. / n.d. | n.d. | 0/9 |
| GFTLNSYGIS | QIDSDGRRTFYGDKVK | GRAAGTFDS | 3.78 / n.d. / n.d. | 3.78 | 1/9 (3.79) |
| GFTLNSYGIS | VIDSIGRRTFYGDSVK | GRAAETFDS | 5.20 / n.d. / n.d. | 5.20 | 1/9 (2.89) |
| GPTLNSYGIS | VIYSDGRRTFYGDSVK | GRAAGTFDS | 1.09 / 1.24 / 1.57 | 1.30 | 4/9 (4.44) |
| GFTVNSYGIS | VIYSDGRRTWYGASVK | GRAAGTFDS | 2.53 / 2.68 / 2.70 | 2.64 | 0/9 |
| GFTLNSYEIS | VIYSDGRRTFYGDSVK | GRAAGTFRS | n.d. / n.d. / n.d. | n.d. | 2/9 (3.37) |
| GFTLISYGIS | VIYSDGRRTFYGNSVK | GRAAGTIDS | n.d. / n.d. / 5.02 | 5.02 | 1/9 (3.86) |
| GFTLNSLGIS | VIYSDGRRTVYGDSVK | GRAACTFDS | n.d. / n.d. / n.d. | n.d. | 3/9 (3.13) |
| GNTLNPYGLS | VIYSDGRRTFYGDSVK | GRAAGTFDS | 4.40 / n.d. / n.d. | 4.40 | 1/9 (3.54) |
| GFTLNSYGIF | VIYSDGRRHFYGDSVK | GRAAGTGDS | n.d. / n.d. / n.d. | n.d. | 2/9 (3.68) |
| GFTLNSYGIS | VIYSEGRRTFYGDSVK | GRAGGTFDG | n.d. / n.d. / n.d. | n.d. | 0/9 |
| GFTLNSYGIG | VIYSDGRRTFLGDSVC | GRAAGTFDS | n.d. / n.d. / n.d. | n.d. | 3/9 (3.78) |
| GFTLNSYGIS | VIYSDGRRTFCQDSVK | GRAGGTFDS | 2.72 / 2.08 / 2.39 | 2.40 | 6/9 (4.16) |
| GFTLNTYGIS | VIYSDGRRTFYGDVVK | GRKAGTFDS | n.d. / n.d. / n.d. | n.d. | 1/9 (2.63) |
| GFTLNSYGIS | VIYSTGRRTFYGDSSK | GRAAGTFDS | 4.44 / 3.45 / 5.27 | 4.39 | 3/9 (4.32) |
| GFTLNDYGIS | VIYSDIRRTFYGDSVK | GRAAGTLDS | 4.79 / 3.53 / n.d. | 4.16 | 3/9 (4.58) |
| GFTLNSYGIS | VIYSDGRRTFYMISVK | ERAAGTFDS | 4.91 / n.d. / n.d. | 4.91 | 3/9 (4.12) |
| GFTLNSGAIS | VIYSDGRRTFYGDSVK | GRCAGTFDS | n.d. / n.d. / n.d. | n.d. | 0/9 |
| GMTLNSYGIS | VIMSDGRRTFYGDQVK | GRAAGTFDS | n.d. / n.d. / n.d. | n.d. | 2/9 (4.26) |
| GRTRNSYGIS | VIYSDGRRTFMGDSVK | GRAAGTFDS | 5.82 / 3.58 / 4.13 | 4.51 | 1/9 (3.36) |
| GFTLNSYGIS | VIYEDGRNTFYGDSVP | GRAAGTFDS | n.d. / n.d. / n.d. | n.d. | 0/9 |
| GGTLNSYGIS | VIYSRGRRTFYGDSVK | GRAAGTFDS | 3.01 / n.d. / n.d. | 3.01 | 0/9 |
| GFTLNSYCKS | VIYSDGRRTFYGDSVK | GSAAGTFDS | n.d. / 2.73 / 4.05 | 3.39 | 4/9 (4.51) |
| GFTLRSYGIS | VIYSDGRRTFYGDSVK | GRAAGTYDY | 4.88 / 3.65 / 6.25 | 4.93 | 4/9 (3.88) |
| GFTLNSYGIS | VCYSDGIRTFYGDSVK | GRAAGTFSS | n.d. / 4.45 / n.d. | 4.45 | 2/9 (4.22) |
| GFTLWSYGIS | VIYSSGRRTFYGDSVK | GRAAGTFDS | n.d. / n.d. / n.d. | n.d. | 0/9 |
| GFTLNSYGIS | VIYSDGRRTFYGDYVK | GRAAGTFWS | n.d. / n.d. / n.d. | n.d. | 0/9 |
| GFTLNSYGIS | VIYSDGRRLFYGDSVK | GVAAGIFDS | n.d. / n.d. / n.d. | n.d. | 1/9 (3.83) |
| GFTLNSYGIS | VIYSDGRRDFYGDSVK | LRALGTFDS | n.d. / 4.09 / n.d. | 4.09 | 1/9 (3.86) |
| GFTLNSYGIS | VIYSDGRRTFYGDAVK | GAAAGTCDS | n.d. / n.d. / n.d. | n.d. | 0/9 |
| DFTLNSYGIS | VIYSDGDRTFYGDLVK | GRAAGTFDS | n.d. / 5.47 / n.d. | 5.47 | 3/9 (4.13) |
| GFTNNSYGIS | VIYSDGRRTFYGDLVK | GRAAGMFDS | n.d. / n.d. / n.d. | n.d. | 0/9 |
| GFTLRSYGIS | VIYSDGRRTRYGDSVK | GRAAGTFDH | n.d. / n.d. / n.d. | n.d. | 2/9 (4.16) |
| QFTLNSPGIS | VIYSDGRRTFYGDSVK | GRAAGTFDS | n.d. / n.d. / 5.89 | 5.89 | 4/9 (3.81) |
| GQTLNSYGIS | VIYSDGFRTFYGGSVK | GRAAGTFDS | n.d. / n.d. / n.d. | n.d. | 0/9 |
| GFTLNSPGIS | SIYSDGRRTFYGDSKK | GRAAGTFDS | n.d. / n.d. / n.d. | n.d. | 0/9 |
| GFTLNSYGIS | VIYSDGSRTFYHDSGK | GRAAGTFDS | n.d. / n.d. / n.d. | n.d. | 0/9 |
| GFTLNSYGNS | VITSDWRRTFYGDSVK | GRAAGTFDS | n.d. / n.d. / 4.39 | 4.39 | 1/9 (4.17) |
| GFTLNSAGIS | VIYSDGRRTFYGVSVK | GRAAGTFDS | n.d. / n.d. / n.d. | n.d. | 0/9 |
| GFTLNSYGIS | VIYSDGRRTCYGDSVK | GRFAGTFDT | 3.91 / 3.68 / 2.52 | 3.37 | 1/9 (4.30) |

Again, the first 6 entries without any signal:

CDR-H1,CDR-H2,CDR-H3,"replicates, log10 nM","log10 Kd (nM), mean",control signals
GDTLNSYGIS,VIYSDGRRDFYGDSVK,GRAAGNFDS,n.d. / n.d. / n.d.,n.d.,1/9 (3.80)
GFTLNSYGIS,EIYSDGRRTQYGISVK,GRAAGTFDS,n.d. / n.d. / n.d.,n.d.,0/9
GFTLNSYEIS,VIYSDGRRTFYGDSVK,GRAAGTFRS,n.d. / n.d. / n.d.,n.d.,2/9 (3.37)
GFTLNSLGIS,VIYSDGRRTVYGDSVK,GRAACTFDS,n.d. / n.d. / n.d.,n.d.,3/9 (3.13)
GFTLNSYGIF,VIYSDGRRHFYGDSVK,GRAAGTGDS,n.d. / n.d. / n.d.,n.d.,2/9 (3.68)
GFTLNSYGIS,VIYSEGRRTFYGDSVK,GRAGGTFDG,n.d. / n.d. / n.d.,n.d.,0/9

Empty control strains, which show no peptide, gave a signal in 15% of pairings with library AAYL49; the median was 4.06 and 95% of these signals were weaker than 2.83. No background was subtracted. The control count says in how many pairings with the empty strains this scFv gave a signal, with their mean in brackets.